# Entries after “also recorded” stand apart in the source; their conditions may differ.
# Tests used:
# Assay type in all cases: in vivo, human
# [1] = test system: adolescents with Fontan physiology; experiment: FUEL trial: resting data and cardiopulmonary exercise test (CPET), cycle ergometer ramp protocol; settings: 87.5 mg twice daily
# Text: Exercise testing can include assessment of VO2 values during maximal effort or at the ventilator anaerobic threshold (VAT). VO2 max, or maximal oxygen consumption, refers to the maximum amount of oxygen that an individual can utilize during intense exercise. This measurement is generally considered a reliable indicator of cardiovascular fitness and aerobic endurance. The more oxygen a person can use during high level exercise, the more energy that person can produce. This test has been the standard for cardiorespiratory fitness because muscles need oxygen for prolonged (aerobic) exercise; blood carries oxygen to the muscles and the heart must pump adequate amounts of blood to meet the demands of aerobic exercise.
# (§1) VO2 is often measured by putting a mask on a subject, and measuring the volume and gas concentrations of inhaled and expired air. This measurement is often used in both clinical settings and research and is considered the most accurate. Testing commonly involves either exercising on a treadmill or riding a cycle ergometer at increasing intensity until exhaustion, and is designed to provide readings at a maximal effort of the subject and/or at the subject's anaerobic threshold.
# Exercise testing can include assessment of VO2 values during maximal effort or at ventilator anaerobic threshold (“VAT”). VO2 max (“peak VO2”), or maximal (“peak”) oxygen consumption, refers to the maximum amount of oxygen that an individual can utilize during intense exercise. This measurement is generally considered a reliable indicator of cardiovascular fitness and aerobic endurance. Theoretically, the more oxygen a person can use during exercise, the more energy that person can produce. This test is often used for cardiorespiratory fitness because muscles need oxygen for prolonged (aerobic) exercise; blood carries oxygen to the muscles and the heart must pump adequate amounts of blood to meet the demands of aerobic exercise. However, while peak VO2 may be useful as a surrogate for many cardiovascular disease states, it may not be as relevant an endpoint after the Fontan operation. In this unique physiology, central venous pressure, rather than right ventricular contraction (pumping), is the primary driver of transpulmonary blood flow and, therefore, cardiac output. Gewillig M and Goldberg D J. Failure of the fontan circulation. Heart Fail Clin. 10(1):105-116 (January 2014); Egbe A C, Connolly H M, Miranda W R, Ammash N M, Hagler D J, Veldtman G R and Borlaug B A. Hemodynamics of Fontan Failure: The Role of Pulmonary Vascular Disease. Circ Heart Fail. 10(12): e004515 (September 2017); Gewillig M, Brown S C, Eyskens B, Heying R, Ganame J, Budts W, La Gerche A and Gorenflo M. The Fontan circulation: who controls cardiac output?Interact Cardiovasc Thorac Surg. 10(3):428-433 (March 2010); and Goldberg D J, Avitabile C M, McBride M G and Paridon S M. Exercise capacity in the Fontan circulation. Cardiol Young. 23(6):824-830 (December 2013). […]
# as §1, with “This measurement is often used in both clinical settings and research and is considered the most accurate.” left out, “threshold. […]” for “threshold.”
# [2] = test system: adolescents with Fontan physiology; experiment: FUEL trial: echocardiographic myocardial performance index (MPI), blood pool Doppler; settings: ITT
# Text: Generally speaking, MPI (also referred to as the Doppler-derived index or Tei Index) is a measure of ventricular systolic and diastolic function as determined by a focused echocardiogram. It combines systolic and diastolic time intervals to assess heart function. More specifically, MPI can be used to assess ventricular performance represented by a numeric value using cardiac time intervals. This numeric value equals the sum of isovolumetric contraction time (ICT) and isovolumetric relaxation time (IRT) divided by ejection time (ET) and can be determined for either the left or right ventricle. Pellett, A. A., et al.: The Tei Index: Methodology and Disease. State Values. Echocardiography: A Jrnl. of CV Ultrasound & Allied Tech. 21(7):669-672 (2004); and Uluçay, A., Tatli E.: Myocardial performance index. Anadolu Kardiyol Derg. […] In the FUEL Trial, the MPI measured the performance of the single functioning ventricle. Thus, the MPI results from the FUEL Trial were determined by velocities obtained from blood pool Doppler assessment of the inflow and outflow tract of the functioning single ventricle. In other words, the FUEL Trial MPI was determined by measuring the cardiac time intervals using pulsed-wave Doppler velocity spectra of the ventricular inflow and outflow of the single functioning ventricle. […]
# [3] = test system: adolescents with Fontan physiology; experiment: FUEL trial: peripheral arterial tonometry (EndoPAT), log-transformed reactive hyperemia index (lnRHI); settings: for Log-transformed reactive hyperemia index (lnRHI), difference Week 26-baseline, mean (SD): 87.5 mg twice daily
# Text: Pulse amplitude tonometry (PAT), a FDA-approved method for assessing vascular function, is increasingly being used as an alternative measure of endothelium-dependent dilation in response to reactive hyperemia and flow-mediated dilation (FMD). The PAT device records digital pulse wave amplitude (PWA) using fingertip plethysmography. PWA can be measured continuously during three phases: a quiet baseline period, 5-min forearm occlusion, and reactive hyperemia following cuff release. Unlike FMD, PAT testing is not dependent upon a highly skilled technician and post-test analysis is largely automated. Most importantly, at least one longitudinal study has shown that PAT measures of endothelial function predict CVD events over a 6-year follow-up period. These significant advantages may make PAT testing suitable for clinical practice if prognostic significance and reliability can be verified.
# The primary aim was to determine the effect of udenafil on exercise capacity in adolescents with Fontan physiology over a six-month period. The primary outcome was the change in oxygen consumption at peak exercise (max or peak VO2) from baseline to the 26-week visit. Secondary exercise outcomes included change in additional measures at maximal exertion, as well as change in measures of submaximal exercise at the ventilatory anaerobic threshold (VAT). […] Safety was monitored through adverse event reports, which were collected according to a pre-specified protocol of study coordinator outreach, and through ad hoc patient and family communication with members of the study team at each site.
# Baseline clinical testing completed before drug initiation included a blood draw to measure brain-type natriuretic peptide (BNP) level, a cardiopulmonary exercise test (CPET) using a standardized cycle ergometer ramp protocol, a standardized echocardiogram, and an assessment of peripheral vascular function using peripheral arterial tonometry (PAT) measured by finger cuff (EndoPAT; Itamar Medical, Israel). […]
# [4] = test system: adolescents with Fontan physiology; experiment: FUEL trial: serum brain-type natriuretic peptide (BNP) level; settings: p=0.18
structure (smiles),measurement,setting,value
"CCCOc1ccc(S(=O)(=O)NCCC2CCCN2C)cc1-c1nc2c(CCC)nn(C)c2c(=O)[nH]1 (centres unmarked) [Udenafil, udenafil]",Anaerobic threshold oxygen consumption indexed to weight,"[1]; Baseline, mean ± SD",18.35 ± 4.63 (170) mL/kg/min
same,Peak exercise oxygen consumption indexed to weight,"[1]; Baseline, mean ± SD",27.84 ± 6.88 (200) mL/kg/min
same,"Anaerobic threshold oxygen consumption indexed to weight, change","[1]; Change, p 0.012 vs placebo",−0.07 ± 3.0 (170) mL/kg/min
same,"Peak exercise oxygen consumption indexed to weight, change","[1]; Change, p 0.092 vs placebo",−0.23 ± 4.06 (200) mL/kg/min
same,"VE/VCO2 measured at VAT, decreased by (improved ventilatory efficiency)",[1]; baseline to 26-week,0.8
same,"Myocardial Performance Index (MPI), mean","[2]; 87.5 mg twice daily, Week 26",146: 0.42
same,"Myocardial Performance Index (MPI), mean",[2]; Baseline,150: 0.45
same,"Log-transformed reactive hyperemia index (lnRHI), difference Week 26-baseline, mean (SD)",[3],0.06 (0.301)
same,"Log-transformed reactive hyperemia index (lnRHI), difference Week 26-baseline, mean (SD)",[3]; listed as udenafil,0.07
same,"Log-transformed reactive hyperemia index, Difference LS Mean (SE), udenafil vs placebo",[3]; p 0.591,0.02 (0.030)
same,"Change in log serum BNP level, udenafil vs placebo",[4],not different between groups; also recorded: no difference

# — patent US20250186448A1, “FORMULATIONS OF UDENAFIL” (Mezzion Pharma Co., Ltd., priority 2021, published 2025)
